Assay results reported in ChEMBL document CHEMBL1135086.

Amino acid sequences for entries named in this document (tags omitted).
UniProt P29476, whole entry, looked up: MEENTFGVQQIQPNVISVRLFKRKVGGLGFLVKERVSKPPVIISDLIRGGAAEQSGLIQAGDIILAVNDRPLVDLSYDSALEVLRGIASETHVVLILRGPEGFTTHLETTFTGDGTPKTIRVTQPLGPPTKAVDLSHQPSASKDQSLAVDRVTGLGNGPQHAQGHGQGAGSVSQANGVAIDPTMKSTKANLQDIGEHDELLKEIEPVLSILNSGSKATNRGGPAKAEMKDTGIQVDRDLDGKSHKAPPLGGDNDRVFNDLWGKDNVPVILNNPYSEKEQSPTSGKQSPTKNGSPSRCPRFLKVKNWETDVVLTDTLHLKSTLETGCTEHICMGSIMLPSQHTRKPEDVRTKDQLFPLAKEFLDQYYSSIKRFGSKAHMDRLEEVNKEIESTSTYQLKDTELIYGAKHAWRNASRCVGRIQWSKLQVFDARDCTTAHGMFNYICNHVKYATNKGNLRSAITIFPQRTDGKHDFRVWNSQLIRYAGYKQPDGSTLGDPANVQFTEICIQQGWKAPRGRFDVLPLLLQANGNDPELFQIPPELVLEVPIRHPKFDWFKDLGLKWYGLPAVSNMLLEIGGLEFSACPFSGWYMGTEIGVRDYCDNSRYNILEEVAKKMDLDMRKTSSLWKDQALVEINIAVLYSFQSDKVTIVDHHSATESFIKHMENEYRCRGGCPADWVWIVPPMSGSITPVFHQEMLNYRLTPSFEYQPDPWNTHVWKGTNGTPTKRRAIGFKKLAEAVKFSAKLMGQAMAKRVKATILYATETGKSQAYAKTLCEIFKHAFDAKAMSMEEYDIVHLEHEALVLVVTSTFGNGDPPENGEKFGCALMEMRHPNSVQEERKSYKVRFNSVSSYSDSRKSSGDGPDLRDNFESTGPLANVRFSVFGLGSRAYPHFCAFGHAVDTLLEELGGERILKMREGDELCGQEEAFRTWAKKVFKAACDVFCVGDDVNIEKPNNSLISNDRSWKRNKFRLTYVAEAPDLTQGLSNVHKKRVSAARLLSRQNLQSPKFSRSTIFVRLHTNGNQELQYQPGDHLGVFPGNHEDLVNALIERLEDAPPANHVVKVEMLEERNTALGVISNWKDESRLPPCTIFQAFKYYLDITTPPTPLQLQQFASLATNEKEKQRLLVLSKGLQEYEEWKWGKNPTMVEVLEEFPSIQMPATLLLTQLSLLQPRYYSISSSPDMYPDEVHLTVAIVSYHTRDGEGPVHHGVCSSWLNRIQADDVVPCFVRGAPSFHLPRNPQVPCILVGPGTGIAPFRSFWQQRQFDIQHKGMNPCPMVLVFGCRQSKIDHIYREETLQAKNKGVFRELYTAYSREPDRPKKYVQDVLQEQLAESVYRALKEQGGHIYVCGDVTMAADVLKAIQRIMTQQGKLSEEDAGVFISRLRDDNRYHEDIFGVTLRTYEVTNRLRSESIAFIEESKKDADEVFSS

Biological target: Nitric oxide synthase 1 (Rattus norvegicus) (UniProt P29476)
Test: Effect on the activity of recombinant rat neuronal nitric oxide synthase as determined with radioactive L-arginine/L-citruline conversion assay
Set-up: concentration or dose not given beside the values
Conditions: concentration not given here

Compound: O=[N+]([O-])/C=C/c1cc(O)c(O)cc1[N+](=O)[O-]
- inhibition: 55%
